Values of other authors, collected in patent publication US20160231323A1, “PROTECTION OF TCR SIGNALING CHAINS IN CANCER PATIENTS AND ENHANCEMENT OF CAR-T CELL THERAPY” (Batu Biologics, Inc., priority 2015, published 2016).

System: tumour mass
Conditions: trials where IL-2 increased NK activity

IL-2: immunomodulatory compound (cytokine) administered to increase NK activity in cancer patients
effect on the tumour mass: minimal
